Experimental data as given in patent US5962640A, “Methods for preparing novel dipeptide compounds or pharmacuetically acceptable salts thereof” (Japan Energy Corporation, priority 1995, dated 1999).

Molecular target: T1, Recombinant HIV protease (Human immunodeficiency virus type 1 group M subtype B, UniProt P04585)
T1 construct: Recombinant HIV protease
Experiment: HIV protease inhibitory activity (cleavage of synthetic hepta-peptide, HPLC)
Type: biochemical
Settings: 37° C., 60 min
Procedure: According to a method which was already reported in publications (Yoshiaki Kiso, Yuuki-gosei-kagaku-kyokai-shi, vol. 52, 403-412 (1994), Japanese laid-open patent, No. 170722(1993), etc.), the compounds of example 1-42 were evaluated to verify high HIV protease inhibitory activity of the dipeptide compound of the present invention.
Recombinant HIV protease (Biochemistry, 250 (9), 264 (1990)) and synthetic hepta-peptide (H-Ser-Gln-Asn-Tyr-Pro-Ile-Val-OH/trifluoroacetic acid salt) were used for assay of protease activity. Peptide fragment H-Pro-Ile-Val-OH formed by cleavage between -Tyr . . . Pro of said substrate after a reaction in the presence of various concentration of tested compound at 37° C. for 60 min. was determined by reversed phase HPLC and the inhibitory rate was calculated (referred to Japanese laid-open unexamined patent, No. 170722/1993). […]

Compound: CSC[C@H](NC(=O)COc1cccc2cnccc12)C(=O)N[C@@H](Cc1ccccc1)[C@H](O)C(=O)N1CSC[C@H]1C(=O)NC(C)(C)C [KNI-272, (R)-3-[(2S,3S)-3-(N-(isoquinoline-5-yloxy)acetyl-methylthio-L-alanyl)amino-2-hydroxy-4-phenylbutanoyl]1,3-thiazolidine-4-N'-t-butylcarboxamide, reference compound]
- HIV protease inhibitory activity (%) (concentration 50 nM (final)): 96.7%
- HIV protease inhibitory activity (%) (concentration 5 μM (final)): > 99.0%
